From patent US5935995A, “Prodrugs for the therapy of tumors and inflammatory disorders” (Heochst Aktiengesellschaft, priority 1996, dated 1999)

The chains behind the UniProt entries cited, without tags or fusion partners.
UniProt P05804, whole entry: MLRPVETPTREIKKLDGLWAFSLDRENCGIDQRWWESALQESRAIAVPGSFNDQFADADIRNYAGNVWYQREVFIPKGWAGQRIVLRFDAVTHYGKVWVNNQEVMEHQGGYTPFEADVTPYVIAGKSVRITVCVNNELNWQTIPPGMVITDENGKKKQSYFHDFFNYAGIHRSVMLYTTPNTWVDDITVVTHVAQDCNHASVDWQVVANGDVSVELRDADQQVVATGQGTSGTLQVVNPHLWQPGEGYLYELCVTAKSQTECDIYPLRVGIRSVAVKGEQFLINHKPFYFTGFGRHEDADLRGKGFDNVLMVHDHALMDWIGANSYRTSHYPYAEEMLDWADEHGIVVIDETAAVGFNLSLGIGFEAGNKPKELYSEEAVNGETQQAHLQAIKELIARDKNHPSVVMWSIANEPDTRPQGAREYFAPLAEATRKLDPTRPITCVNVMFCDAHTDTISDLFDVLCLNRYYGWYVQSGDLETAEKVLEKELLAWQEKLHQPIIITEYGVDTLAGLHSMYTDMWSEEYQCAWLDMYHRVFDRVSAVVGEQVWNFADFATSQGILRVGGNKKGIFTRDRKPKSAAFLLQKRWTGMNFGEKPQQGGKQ

Biological target: E. coli β-glucuronidase (Sigma) (Escherichia coli, UniProt P05804)
Experiment: Enzymatic cleavage of F 373 on incubation with E. coli β-glucuronidase, HPLC analysis
Details: 37° C., pH 7.2, with β-glucuronidase, starting from F 373
Method: On incubation with b-glucuronidase, the prodrug F 373 (compound 11) is cleaved enzymatically to an aromatic nitrogen mustard gas derivative (4-[N,N-bis(2-chloroethyl)amino]phenol) (compound 7), glucuronic acid and the spacer.
The prodrug F 373 is stable in solution in anhydrous DMSO. To investigate the cleavability, […] of F 373 solution (5 mg/ml in DMSO) were treated with 180 ml of 0.02 M phosphate buffer pH 7.2 and 10 ml of E. coli β-glucuronidase (Sigma) (330 mg/ml) and the mixture was incubated at 37° C. 25 ml batches were diluted with 225 ml of 0.1 M phosphate buffer pH 3.0 (85%) and acetonitrile (15%) and immediately analyzed with the aid of the following HPLC system.
The HPLC system used consisted of a gradient pump (Gynkotek, Model 480), an autosampler (Abimed, Model 231/401), a UV detector (Beckman, Model 166, detection wavelength 212 nm) and an analysis unit (Beckman, System Gold). The separations were carried out on an RP column (Zorbax SB-C 18, 5 mm, 125×4.6 mm). The mobile phase was formed from two components according to the following scheme:
B--0.02 M phosphate buffer pH 3.0

`Oc1ccc(N(CCCl)CCCl)cc1` was tested, and the “peak area (HPLC)” value (0 min) was 0, the “peak area (HPLC)” value (1 min) was 3.32 and the “peak area (HPLC)” value (5 min) was 7.43. For the same molecule, the “peak area (HPLC)” value (7 min) was 7.33, the “peak area (HPLC)” value (10 min) was 6.79 and the “peak area (HPLC)” value (15 min) was 5.58. The “peak area (HPLC)” value (25 min) was 4.00 and the “peak area (HPLC)” value (60 min) was 0.88.
